Values quoted from earlier work in patent US20220151944A1, “FLUOROURACIL-CONTAINING FORMULATIONS” (SISAF LIMITED, priority 2019, published 2022).

For orthosilicic acid, the pKa is given as “around 9.8”.
